Measurements as given in PubChem BioAssay AID1236 (Emory University Molecular Libraries Screening Center, 2008).
“And” between values parts separate entries of the source, which are not always exact repeats. Equal values may be shown once. The list shows a part of the results, in another mix than the full data. The source made the active and inactive calls.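 Rule for the calls: active = inhibition above about 50% (limit read from the data); inactive = the rest.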

These compounds were tested on calpain II (m-calpain), Sus scrofa (assay: inhibitors of pig calpain II, primary screen, biochemical, fluorogenic peptide substrate, 1536-well (AID 1236)). Conditions: purified calpain II, 30 min, at 16 µM, active compounds read high.
`CCC(=O)N1C2C3N(C(=O)CC)C1C1N(C(=O)CC)C(C(N1C(=O)CC)N3C(=O)CC)N2C(=O)CC` was tested, and the inhibition was inactive: 2.4%. With `Cc1ccc(OP(=O)(Nc2ccccn2)Oc2ccc(C)cc2)cc1` the inhibition was inactive: 31.4%. `CC(=O)NC(SC(=S)N(CC(C)C)CC(C)C)C(Cl)(Cl)Cl` (configuration not stated) was tested, and the inhibition was inactive: 36.9%. For `COC(=O)c1cc2c(s1)N=C(c1ccccc1)N(C)P2(=O)N1CCOCC1` (configuration not stated), the inhibition was inactive: 2.2%. `O=c1c2cc([N+](=O)[O-])ccc2[nH]c2c([N+](=O)[O-])cc([N+](=O)[O-])cc12` was tested, and the inhibition was inactive: -6.81%. In the case of `CN(C)C(=O)Oc1noc2ccccc12`, the inhibition was inactive: -0.77%. `Cc1ccccc1OP(=O)(Nc1ccccn1)Oc1ccccc1C` was tested, and the inhibition was inactive: -0.47%. In the case of `CCOC(=O)NC(Sc1ccccc1)C(Cl)(Cl)Cl` (configuration not stated), the inhibition was inactive: 29.2%. For `Cc1ccc(NP(=O)(Oc2cccc(C)c2)Oc2cccc(C)c2)nc1`, the inhibition was inactive: 19.5%. `c1ccc(-c2nn[nH]n2)c(-c2nn[nH]n2)c1` was tested, and the inhibition was inactive: 5.91%. In the case of `O=C(NC1CCS(=O)(=O)C1)NP(=S)(Oc1ccccc1)Oc1ccccc1` (configuration not stated), the inhibition was inactive: 15.5%. For `CCNC(=S)/N=C(\N)N[N+](=O)[O-]`, the inhibition was inactive: -23.5%. In the case of `C[C@H]1OP(=O)(Oc2ccccc2)C[C@@H]2O[C@@H]21` (some centres not stated), the inhibition was inactive: -6.93%. With `C[C@@H]1C=CCP(=O)(Oc2ccccc2)O1` (some centres not stated) the inhibition was inactive: -15.4%. With `CC(=O)Nc1ccc(Oc2c([N+](=O)[O-])cc([N+](=O)[O-])cc2[N+](=O)[O-])cc1` the inhibition was inactive: 33%. `CC(=O)Nc1ccc([As](=O)(O)O)c(O)c1` was tested, and the inhibition was inactive: -6.19%. For `CCOc1ccc(C2=NCC(CBr)S2)cc1` (configuration not stated), the inhibition was inactive: 17.1%. `O=P1(Nc2nc3ccc(Cl)cc3s2)COc2ccccc2O1` (configuration not stated) was tested, and the inhibition was inactive: 9.31%. With `CC(C)(C)C(=O)NC(Sc1ccccc1)C(Cl)(Cl)Cl` (configuration not stated) the inhibition was inactive: 5.22%. With `O=P(Nc1nccs1)(c1ccccc1)c1ccccc1` the inhibition was inactive: -28.6%. `CC(C)C(=O)NC(Sc1ccccc1)C(Cl)(Cl)Cl` (configuration not stated) was tested, and the inhibition was inactive: -16.1%. With `c1nnnn1CCn1cnnn1` the inhibition was inactive: -33.9%. With `O=[As](O)(c1ccccc1)c1ccc(O)cc1` the inhibition was inactive: 4.01%. In the case of `O=[N+]([O-])c1ncn(CCn2cnc([N+](=O)[O-])n2)n1`, the inhibition was inactive: -3.27%. `CC(=O)NC(SC(=S)N(C)C)C(Cl)(Cl)Cl` (configuration not stated) was tested, and the inhibition was inactive: -6.42%. With `O=C(OC1CN2CCC1CC2)c1cccc(Cl)c1` (configuration not stated) the inhibition was inactive: -16.5%. In the case of `C(Cc1nn[nH]n1)Cc1nn[nH]n1`, the inhibition was inactive: -11.3%. `Nc1ccc([As](=O)(O)c2ccc([N+](=O)[O-])cc2)cc1` was tested, and the inhibition was inactive: 2.25%. With `O=P(Nc1ccccn1)(c1ccc(Br)cc1)c1ccc(Br)cc1` the inhibition was inactive: 13.3%. With `C[C@H]1OP(=O)(Oc2ccccc2)[C@H](O)[C@H](O)[C@H]1N=[N+]=[N-]` (some centres not stated) the inhibition was inactive: -4.25%. `O=P(Nc1nc2ccccc2s1)(c1ccccc1)c1ccccc1` was tested, and the inhibition was inactive: 4.7%. With `O=[N+]([O-])c1ncn(CCn2ncnc2[N+](=O)[O-])n1` the inhibition was inactive: 30.3%. `CC(C)(C)C(=O)NC(Sc1ccncn1)C(Cl)(Cl)Cl` (configuration not stated) was tested, and the inhibition was inactive: -15%. With `O=C(O)CNc1ccc([As](=O)(O)O)cc1` the inhibition was inactive: -14%. With `O=[N+]([O-])c1cccc(NC2=NCC(CBr)S2)c1` (configuration not stated) the inhibition was inactive: 13.8%. In the case of `O=C(Nc1cc([As](=O)(O)O)ccc1O)c1ccccc1`, the inhibition was inactive: -19.6%. `CCN(/C(=N/P(=O)(N1CCOCC1)N1CCOCC1)N1CCOCC1)c1ccc(OC)cc1` was tested, and the inhibition was inactive: 22.7%. For `C[N+]1=C2C=CC=CC=C2SC12C([N+](=O)[O-])=CC([N+](=O)[O-])=C[C-]2[N+](=O)[O-]` (configuration not stated), the inhibition was inactive: -8.5%. For `Nc1ccc([As](=O)(O)c2ccc(N)cc2)cc1`, the inhibition was inactive: -2.8%. `CC1CCN(C(=O)Oc2c(Cl)cc(Cl)c3cccnc23)CC1` was tested, and the inhibition was inactive: -0.66%. `CN(C)C(=O)OCCc1n(C)cc[n+]1C` was tested, and the inhibition was inactive: -4.85%. With `CC(C)=N/N=C(\N)N[N+](=O)[O-]` the inhibition was inactive: 0.41%. With `COc1ccc(C2=NCC(CBr)S2)cc1` (configuration not stated) the inhibition was inactive: -16.1%. In the case of `O=[N+]([O-])c1cc([N+](=O)[O-])c(CCNc2ccccc2)c([N+](=O)[O-])c1`, the inhibition was inactive: -13%. With `CCc1nc2c(n1)c1c(non1O)c1c2no[n+]1[O-]` the inhibition was inactive: 3.1%. For `Cc1ccc(NP(=O)(Oc2ccccc2)Oc2ccccc2)nc1`, the inhibition was inactive: -22.8%. In the case of `CC(=O)N1C2C3N(C(C)=O)C1C1N(C(C)=O)C(C(N1C(C)=O)N3C(C)=O)N2C(C)=O`, the inhibition was inactive: 14.6%. With `O=[N+]([O-])c1cccc2n[nH]nc12` the inhibition was inactive: -47.4%. In the case of `O=C(NC(Sc1ccncn1)C(Cl)(Cl)Cl)c1ccccc1` (configuration not stated), the inhibition was inactive: -6.4%. With `Cc1c2non([O-])c-2c(C)[n+](=O)[n+]1[O-]` the inhibition was inactive: 9.13%. With `Oc1ccccc1CNc1ccccn1` the inhibition was inactive: -12.1%. `Nc1cc(N)c2nonc2c1[N+](=O)[O-]` was tested, and the inhibition was inactive: -5.45%. `CC(C)CC(=O)NC(Sc1ccc(Cl)cc1)C(Cl)(Cl)Cl` (configuration not stated) was tested, and the inhibition was inactive: -37.7%. `Cc1ccc(N/C(=N/P(=O)(N2CCOCC2)N2CCOCC2)N2CCOCC2)cc1` was tested, and the inhibition was inactive: -24.8%. In the case of `NC(=O)c1cc([N+](=O)[O-])cc([N+](=O)[O-])c1N`, the inhibition was inactive: -13.2%. With `CN1CCCC(OC(=O)C(c2ccccc2)c2ccccc2)C1` (configuration not stated) the inhibition was inactive: 5.27%. For `Clc1ccc(Cl)c(NC2=NCC(CBr)S2)c1` (configuration not stated), the inhibition was inactive: -7.89%. For `Cc1ccc(OP(=O)(Nc2nccs2)Oc2ccc(C)cc2)cc1`, the inhibition was inactive: -3.81%. `COc1ccccc1OP(=O)(Nc1ccc(C)cn1)Oc1ccccc1OC` was tested, and the inhibition was inactive: -14.3%. `Nc1cccc2ccc([As](=O)(O)O)cc12` was tested, and the inhibition was inactive: -314%. With `CCN(N=Nc1nonc1N)c1nonc1N` the inhibition was inactive: -3.28%. For `O=P(Nc1nc2ccc(Cl)cc2s1)(c1ccccc1)c1ccccc1`, the inhibition was inactive: -18.2%. In the case of `CC(=O)Nc1ccc([As](=O)(O)O)cc1`, the inhibition was inactive: -15.7%. In the case of `O=C(O)c1ccccc1[As](=O)(O)O`, the inhibition was inactive: 11.4%. With `Cc1ccc(NP(=O)(Oc2ccccc2F)Oc2ccccc2F)nc1` the inhibition was inactive: -10%. With `Cc1cc(SC(NC(=O)c2ccc(F)cc2)C(Cl)(Cl)Cl)ncn1` (configuration not stated) the inhibition was inactive: -5.47%. With `CCOP(=O)(Nc1ccccc1)OCC` the inhibition was inactive: -16.6% and inactive: -5.14%. For `ClCCSc1nnc(-c2cccnc2)o1`, the inhibition was inactive: 13.5%. `CC(C)c1ccc(OP(=O)(Nc2ccccn2)Oc2ccccc2F)cc1` (configuration not stated) was tested, and the inhibition was inactive: 1.19%. With `O=[N+]([O-])c1cc([N+](=O)[O-])c(-c2ccn[nH]2)s1` the inhibition was inactive: 29.6%. In the case of `CC(C)NC(=O)NP(=O)(Oc1ccccc1)Oc1ccccc1`, the inhibition was inactive: -14.7%. With `CCN(CC)C(=S)SC(NC=O)C(Cl)(Cl)Cl` (configuration not stated) the inhibition was inactive: 4.86%. For `C[As](=O)(O)c1cccc(C(=O)O)c1`, the inhibition was inactive: 12.8%. `O=[As](O)(c1ccc(O)cc1)c1ccccc1O` was tested, and the inhibition was inactive: 11.6%. In the case of `Cc1ccc(OP(=O)(Nc2ccc([N+](=O)[O-])cn2)Oc2ccc(C)cc2)cc1`, the inhibition was inactive: -12.2%. With `Cc1ccc2nc3c(c(C)c2c1)CC(C(Cl)Cl)S3` (configuration not stated) the inhibition was inactive: -10.2%. In the case of `COc1ccc(N/C(=N/P(=O)(N2CCOCC2)N2CCOCC2)N2CCOCC2)cc1`, the inhibition was inactive: 25.3%. In the case of `Cc1c2c(nc3ccccc13)SC(C(Cl)Cl)C2` (configuration not stated), the inhibition was inactive: 12.9%. `Cc1cc(=O)[nH]c(N[N+](=O)[O-])n1` was tested, and the inhibition was inactive: -13.2%. In the case of `O=C(OC1CN2CCC1CC2)C12CC3CC(CC(C3)C1)C2` (configuration not stated), the inhibition was inactive: -11.7%. In the case of `COc1cc(I)ccc1[As](=O)(O)O`, the inhibition was inactive: -14%. In the case of `COc1ccc2nc(NP(=O)(c3ccccc3)c3ccccc3)sc2c1`, the inhibition was inactive: 23.5%. For `CCOC(=O)c1ccc(NC(=O)C(C)(CCl)SC)cc1` (configuration not stated), the inhibition was inactive: -18.2%. In the case of `CCC(C)N(CC(C)C)C(=S)SC(NC(C)=O)C(Cl)(Cl)Cl` (configuration not stated), the inhibition was inactive: 3.65%. With `COP1(=S)c2c(C)nn(CCC#N)c2N=C(c2ccc(F)cc2)N1C` (configuration not stated) the inhibition was inactive: 6.22%. `O=C(COc1ccccc1)OC1CN2CCC1CC2` (configuration not stated) was tested, and the inhibition was inactive: -9.13%. In the case of `CCOC(=O)Nc1cccc([As](=O)(O)O)c1`, the inhibition was inactive: 21.6%. With `Cc1cc(SC(NC=O)C(Cl)(Cl)Cl)ncn1` (configuration not stated) the inhibition was inactive: 4.03%. With `O=P(Nc1ccccn1)(c1cccc2ccccc12)c1cccc2ccccc12` the inhibition was inactive: -69.8%. With `O=[N+]([O-])c1ccc(Nc2ccc(Oc3ccc([N+](=O)[O-])cc3[N+](=O)[O-])cc2)c([N+](=O)[O-])c1` the inhibition was inactive: -16.1%. For `CCOC(=O)Nc1ccc([As](=O)(O)O)c(O)c1`, the inhibition was inactive: 1.49%. In the case of `Cc1cc(SC(NC(=O)c2ccccc2)C(Cl)(Cl)Cl)nc(C(C)C)n1` (configuration not stated), the inhibition was inactive: -24.8%. `O=P1(Nc2ncccn2)COc2ccccc2OC1` was tested, and the inhibition was inactive: -27.6%. `Nc1cccc([As](=O)(O)c2ccccc2)c1` was tested, and the inhibition was inactive: 16.5%. For `O=[As](O)(c1cccs1)c1cccs1`, the inhibition was inactive: -21.9%. With `Cc1ccc(OCC(=O)OC2CN3CCC2CC3)cc1` (configuration not stated) the inhibition was inactive: -62%. For `O=P1(Nc2ccc(Br)cn2)COc2ccccc2OC1`, the inhibition was inactive: 8.52%. With `CC1CCC(C(C)C)C(OP(=O)(Nc2ccccn2)c2ccccc2)C1` (configuration not stated) the inhibition was inactive: 31.9%. `Cc1nn(-c2ccccc2)c2c1P(=O)(N1CCOCC1)N(C)C(c1ccccc1)=N2` (configuration not stated) was tested, and the inhibition was inactive: -1.72%. With `CN(C)C1(CNC(=O)c2ccc(S(C)(=O)=O)cc2)CCCCC1` the inhibition was inactive: 23.3%. `O=C(/C=C/c1ccccc1)OC1CN2CCC1CC2` (configuration not stated) was tested, and the inhibition was inactive: 17.6%. `CN(C(=O)Cc1ccc(Cl)c(Cl)c1)[C@@H]1CCCC[C@H]1N1CCCC1` was tested, and the inhibition was inactive: 13.3%.
